Measurements from ChEMBL document CHEMBL2331439 (J Med Chem, 2013).

Molecular target: RAF proto-oncogene serine/threonine-protein kinase (Homo sapiens, UniProt P04049)
Assay: Inhibition of recombinant RAF1 (unknown origin) by cascade reaction assay

CN1C/C(=C\c2ccccn2)C(=O)/C(=C/c2ccccn2)C1
IC50: 6.5 µM
